Our source for the IC50 values is publication PMC3257251, “A Whole Cell Assay to Measure Caspase-6 Activity by Detecting Cleavage of Lamin A/C” (PLoS ONE, 2012).

One test addresses T1, Caspase-3 (Homo sapiens, UniProt P42574).
T1 construct: made in house; host or cells: E. coli
T1 sequence (P42574 29-175 limits assumed): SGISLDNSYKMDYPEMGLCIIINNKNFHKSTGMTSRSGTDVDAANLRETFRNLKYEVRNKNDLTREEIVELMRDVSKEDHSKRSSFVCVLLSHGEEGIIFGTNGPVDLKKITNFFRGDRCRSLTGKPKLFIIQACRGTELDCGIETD
T1 sequence (P42574 176-277 limits assumed): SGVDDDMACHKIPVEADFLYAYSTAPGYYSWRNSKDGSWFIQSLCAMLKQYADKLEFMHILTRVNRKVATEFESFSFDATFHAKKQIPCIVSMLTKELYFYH
As to the kind of experiment: Enzymatic caspase activity assay, (Ac-DEVD)2-Rh110 substrate. Type of test: biochemical. The following applies: apparent IC50; 15 minute preincubation and 40 minute reaction; 300 pM caspase-3, 1 µM (Ac-DEVD)2-Rh110.

For test [1], the target named is T2, caspase-6 cleavage of lamin A/C in SKNAS cells (Homo sapiens, UniProt P55212).
T2 construct: monitors cellular caspase-6 cleavage of endogenous lamin A/C under apoptotic conditions; endogenous in cells; host or cells: SKNAS (ATCC #CRL-2137)
T2 sequence (P55212 24-179 limits assumed): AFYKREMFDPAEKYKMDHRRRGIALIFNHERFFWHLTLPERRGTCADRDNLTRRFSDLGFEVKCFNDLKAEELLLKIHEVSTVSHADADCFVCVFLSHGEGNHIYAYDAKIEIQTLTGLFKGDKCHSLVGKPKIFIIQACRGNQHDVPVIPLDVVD
T2 sequence (P55212 194-293 limits assumed): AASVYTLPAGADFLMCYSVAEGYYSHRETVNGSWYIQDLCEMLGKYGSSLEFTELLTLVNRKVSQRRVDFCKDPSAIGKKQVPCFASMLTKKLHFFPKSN
Briefly: Cell-based ELISA for cleaved lamin A/C (cellular lamin cleavage assay). The following applies: inhibitor 30 min before 3 µM staurosporine for 6 hours, small lamin A/C cleavage product. The method, then:
The following day, cell culture medium was aspirated and replaced with 20 µl/well basal medium (DMEM with no supplements added). […] 5 µl of diluted inhibitor was delivered to each well and incubated for 30 minutes in a cell culture incubator prior to addition of 5 µl/well staurosporine in basal medium. The final DMSO concentration in the assay was 0.1% and the final staurosporine concentration was 3 µM (or indicated concentration). […] Cells were permeabilized by the addition of 50 µl 0.2% Triton X-100 in PBS for 15 minutes at room temperature. […] The following day, primary antibody was aspirated and the wells washed 3 times with 100 µl TBST. Secondary antibody (donkey anti-rabbit IgG, HRP-conjugated (GE Healthcare #NA934V)) was delivered at 1∶2500 dilution in blocking agent (20 µl/well) and incubated 1 hour at room temperature.
In order to develop an assay more amenable to inhibitor screening, this antibody detection was adapted to a plate-based non-denaturing assay. […] Binding of the two antibodies that recognize neo-epitopes on the large or small lamin degradation products was detected by horseradish-peroxidase-labeled secondary antibody and subsequent chemiluminescent substrate addition (see methods for details).
Background: ELISA stands for enzyme-linked immunosorbent assay.

For the next test, the target named is T3, Caspase-6 (Homo sapiens, UniProt P55212).
T3 sequence (P55212 24-179 limits assumed): T2 sequence (P55212 24-179 limits assumed)
T3 sequence (P55212 194-293 limits assumed): T2 sequence (P55212 194-293 limits assumed)
As to the kind of experiment: Enzymatic caspase activity assay, (Ac-VEID)2-Rh110 substrate. The following applies: 15 minute enzyme/inhibitor preincubation and 40 minute enzyme reaction.

Structures are written as SMILES. pIC50: −log10 of the molar value. Read-outs that look alike come from different tables or passages of the source.

A word on the pIC50: it is the IC50 on a negative log10 scale, so that one unit is a factor of ten. Turning to `CC(=O)N[C@@H](CC(=O)O)C(=O)N[C@@H](CCC(=O)O)C(=O)N[C@H](C(=O)N[C@H](C=O)CC(=O)O)C(C)C` [Ac-DEVD-CHO], at Caspase-3, the pIC50 was 8.89.
With `CC[C@H](C)[C@H](NC(=O)[C@H](CCC(=O)O)NC(=O)[C@@H](NC(C)=O)C(C)C)C(=O)N[C@H](C=O)CC(=O)O` [Ac-VEID-CHO], the pIC50 in test [1] was under 4.00; on Caspase-6 (read-out: Enzymatic Caspase-6 IC50), 7.80; on Caspase-6 (read-out: Mean IC50 Caspase-6, apparent IC50, 1 nM caspase-6, 5 µM (Ac-VEID)2-Rh110), 7.79.
